We go through five compounds from patent US20250276983A1, “COMPOUNDS AND METHODS FOR MODULATING HER2” (IAMBIC THERAPEUTICS, INC., priority 2022, published 2025).

Common to all, as to format: cell-based
One experiment has as its system BaF3_EGFRWT cells. Put plainly: Cell growth inhibition assay, BaF3_EGFRWT. The following applies: 72 h, read-out: EGFR WT IC50 (nM), cell growth inhibition.
Another experiment relates to BaF3_HER2YVMA cells. Nature of the experiment: Cell growth inhibition assay, BaF3_HER2YVMA. The following applies: 72 h, 3 days treatment, CellTiterGlo 2.0, read-out: HER2-YVMA IC50 (nM), cell growth inhibition.
The next experiment relates to BaF3_HER2WT cells. Nature of the experiment: Cell growth inhibition assay, BaF3_HER2WT. The note with it: 72 h, read-out: HER2 WT IC50 (nM), cell growth inhibition.

Consider `COC1CCN(C/C=C/C(=O)N2CCC(c3ccn4ncnc(Nc5ccc(Oc6ccc7c(c6)ncn7C)c(C)c5)c34)CC2)CC1` [Example 115, (E)-4-(4-methoxypiperidin-1-yl)-1-(4-(4-((3-methyl-4-((1-methyl-1H-benzo[d]imidazol-5-yl)oxy)phenyl)amino)pyrrolo[2,1-f][1,2,4]triazin-5-yl)piperidin-1-yl)but-2-en-1-one], for which the IC50 in the experiment on BaF3_EGFRWT cells lay in the range of 1500 to 5000 nM.
Take `Cc1cc(Nc2ncnn3ccc(C4CCN(C(=O)/C=C/CN5CCOCC5)CC4)c23)ccc1Oc1ccc2c(c1)ncn2C` [Example 128, (E)-1-(4-(4-((3-methyl-4-((1-methyl-1H-benzo[d]imidazol-5-yl)oxy)phenyl)amino)-pyrrolo[2,1-f][1,2,4]triazin-5-yl)piperidin-1-yl)-4-morpholinobut-2-en-1-one]: the half-inhibitory concentration (IC50) in the experiment with BaF3_EGFRWT cells is 1500 to 5000 nM; in the experiment on BaF3_HER2YVMA cells it was < 200 nM; with BaF3_HER2WT cells, < 200 nM.
Take `Cc1cc(Nc2ncnn3ccc(C4CCN(C(=O)/C=C/CN5CCC(O)C5)CC4)c23)ccc1Oc1ccc2c(c1)ncn2C` (stereo not shown) [Example 130, (E)-4-(3-hydroxypyrrolidin-1-yl)-1-(4-(4-((3-methyl-4-((1-methyl-1H-benzo[d]imidazol-5-yl)oxy)phenyl)amino)pyrrolo[2,1-f][1,2,4]-triazin-5-yl)piperidin-1-yl)but-2-en-1-one]: in the experiment on BaF3_EGFRWT cells, the IC50 was 1500 to 5000 nM.
Still for that read-out and setting: as for `Cc1cc(Nc2ncnn3ccc(C4CCN(C(=O)/C=C/CN5CCN(C)CC5)CC4)c23)ccc1Oc1ccc2c(c1)ncn2C` [Example 131, (E)-1-(4-(4-((3-methyl-4-((1-methyl-1H-benzo[d]imidazol-5-yl)oxy)phenyl)-amino)pyrrolo[2,1-f][1,2,4]triazin-5-yl)piperidin-1-yl)-4-(4-methylpiperazin-1-yl)but-2-en-1-one], the figure is 1500 to 5000 nM; as for `COC1CN(C/C=C/C(=O)N2CCC(c3ccn4ncnc(Nc5ccc(Oc6ccc7c(c6)ncn7C)c(C)c5)c34)CC2)C1` [Example 132, (E)-4-(3-methoxyazetidin-1-yl)-1-(4-(4-((3-methyl-4-((1-methyl-1H-benzo[d]imi-dazol-5-yl)oxy)phenyl)amino)pyrrolo[2,1-f][1,2,4]triazin-5-yl)piperidin-1-yl)but-2-en-1-one], 1500 to 5000 nM.
